From ChEMBL document CHEMBL5532662, “Exploiting the Carboxylate-Binding Pocket of β-Lactamase Enzymes Using a Focused DNA-Encoded Chemical Library” (J Med Chem, 2024) come the findings set out here.

The chains behind the UniProt entries cited, without tags or fusion partners. Where a name states a change or a piece, a line headed by the entry shows the natural chain unless it says otherwise.
UniProt C7C422: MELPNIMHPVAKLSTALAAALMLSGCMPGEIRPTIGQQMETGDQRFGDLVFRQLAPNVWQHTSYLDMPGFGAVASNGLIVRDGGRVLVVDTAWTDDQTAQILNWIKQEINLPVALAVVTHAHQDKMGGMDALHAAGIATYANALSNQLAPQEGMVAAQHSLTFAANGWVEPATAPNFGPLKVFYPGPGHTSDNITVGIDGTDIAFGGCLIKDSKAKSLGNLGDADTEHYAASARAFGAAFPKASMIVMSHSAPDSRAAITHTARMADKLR

In this experiment the target is Metallo-beta-lactamase type 2 (Bacteria, UniProt C7C422). The experiment can be described thus: biochemical.

The compound `CN(C)C(=O)c1ccc(CNCc2ccc(O)c(C(=O)O)c2)s1` came in with an inhibitory constant (Ki) of 120 µM.
